Laboratory results as given in patent publication US10301261B2, “Substituted indoles as modulators of ROR-gamma” (Vitae Pharmaceuticals, LLC, priority 2015, dated 2019).

The chains behind the UniProt entries cited, without tags or fusion partners. A line that says so, or that is headed by a name, gives the form on record, which may keep a tag or linker. Residues count along the entry.
UniProt P51449, other isoform, or with tags, fused parts or gaps: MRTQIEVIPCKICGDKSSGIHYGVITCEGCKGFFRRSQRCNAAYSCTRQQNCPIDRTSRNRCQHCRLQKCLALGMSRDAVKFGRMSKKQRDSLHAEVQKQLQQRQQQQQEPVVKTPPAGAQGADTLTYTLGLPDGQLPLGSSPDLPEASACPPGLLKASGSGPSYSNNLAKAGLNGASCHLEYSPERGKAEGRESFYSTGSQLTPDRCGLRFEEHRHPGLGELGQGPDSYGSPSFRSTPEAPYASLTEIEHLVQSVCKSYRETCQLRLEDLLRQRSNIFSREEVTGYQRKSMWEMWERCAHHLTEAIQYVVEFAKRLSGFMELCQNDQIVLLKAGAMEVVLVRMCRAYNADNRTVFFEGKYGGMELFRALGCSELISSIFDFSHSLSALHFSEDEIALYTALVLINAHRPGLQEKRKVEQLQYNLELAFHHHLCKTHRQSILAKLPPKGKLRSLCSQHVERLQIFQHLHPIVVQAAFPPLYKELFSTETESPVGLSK
UniProt P51449, 269-508: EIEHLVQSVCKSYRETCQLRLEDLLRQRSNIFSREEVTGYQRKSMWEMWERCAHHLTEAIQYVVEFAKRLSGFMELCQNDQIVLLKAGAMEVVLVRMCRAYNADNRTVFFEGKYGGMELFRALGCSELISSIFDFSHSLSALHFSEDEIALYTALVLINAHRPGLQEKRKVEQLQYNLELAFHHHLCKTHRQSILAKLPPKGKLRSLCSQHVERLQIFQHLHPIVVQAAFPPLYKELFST

Experiments:
[1] = target: full-length RORγt in Jurkat cells (Homo sapiens (Human), UniProt P51449); test: RORγt 5×RORE Assay in Jurkat Cells (Assay 2); assay type: cell-based; conditions: RORγt 5×RORE Nanoluc reporter
Experimental: [formula] RORγt 5×RORE Assay in Jurkat Cells (Assay 2)
Compounds described herein were tested for RORγ inverse agonist activity in a cell-based, transcriptional activity assay. […] (Promega, Cat. # N1021) using KpnI and HindIII restriction sites. […] Tested compounds were added to the cells in the same media (final concentration of DMSO was 0.1% (v/v)), and the plates were incubated at 37° C./5% CO2 for 16-18 hrs. Luciferase activity in the conditioned supernatants was determined with NanoGlo® assay reagents (Promega, Cat.# N1130).

[2] = target: recombinant RORγ Ligand Binding Domain (LBD) protein (Homo sapiens (Human), UniProt P51449); test: Radio-Ligand RORγ Binding Assay (Assay 1); conditions: radio-ligand 25-hydroxy [26,27-3H]-cholesterol competition
Experimental: Radio-Ligand RORγ Binding Assay (Assay 1)
Compounds described herein were tested for ability to bind to RORγ in a cell-free competition assay with commercially available radio-ligand (RL), 25-hydroxy [26,27-^3H]-cholesterol (PerkinElmer, Cat. # NET674250UC), for a ligand binding site on a recombinant RORγ Ligand Binding Domain (LBD) protein expressed as a 6×His-Glutathione-S-Transferase (GST) fusion. […] The plate was shaken at 700 rpm for 20 min and incubated for 10 min at rt, after which 40 μL of poly-Lys YSi SPA beads (PerkinElmer, Cat. # RPNQ0010) were added to achieve 50 μg of the beads per well. The plate was incubated on an orbital shaker for 20 min and then for 10 min without agitation at rt. SPA signal for tritium beta radiation was registered on PerkinElmer Microbeta plate reader. […] The percent inhibition vs. concentration data were fit into a four-parameter model, and IC50 values were calculated from the fit as the concentrations corresponding to the inflection points on the dose-response curves. […]

CCS(=O)(=O)c1ccc(CNC(=O)c2ccc3c(c2)nc(O[C@H]2CC[C@H](C(F)(F)F)CC2)n3C2CC2)cc1 [BE-3, 1-cyclopropyl-N-(4-(ethylsulfonyl)benzyl)-2-(((1r,4r)-4-(trifluoromethyl)cyclohexyl)oxy)-1H-benzo[d]imidazole-5-carboxamide]
IC50 [1]: 100 to 1000 nM
Ki [2]: < 100 nM
